Data published in ChEMBL document CHEMBL1139847, “Carbonic anhydrase inhibitors. DNA cloning, characterization, and inhibition studies of the human secretory isoform VI, a new target for sulfonamide and sulfamate inhibitors” (J Med Chem, 2007).

Target: Carbonic anhydrase 9 (Homo sapiens, UniProt Q16790)

Ki: 30 nM
SMILES: NS(=O)(=O)c1nnc(-c2ccccc2Cl)s1
